# Measured values: PubChem BioAssay AID624304 (Sanford-Burnham Center for Chemical Genomics, 2012)
# Only a part is listed here, and it is no random draw. Calls of active or inactive are those of the source.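 Rule for the calls: active = interference check ratio from 0.5 to 1.5 plus GFP to RFP signal ratio inhibition reaching or exceeding a fixed threshold (cut at about 30% in these data, passing the limit was not always enough); inactive = the rest.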
# Test: gst-4 reporter inhibition in live C. elegans – whole organism, uHTS, GFP/RFP fluorescence ratio, strain VP596, SKN-1 inhibitor project, primary screen (AID 624304)
# Details: C. elegans VP596 Pgst-4::GFP/RFP ratio, acrylamide-induced, 24 h; at 21.8 µM; stronger effect = higher value
row,Structure (SMILES),inhibition
1,CCC(=O)N(c1ccccc1)C1(COC)CCN(CCc2cccs2)CC1,inactive: 12.6%
2,CCC(=O)N(c1ccccc1)C1(COC)CCN(CCn2nnn(CC)c2=O)CC1,inactive: 9.59%
